Apparent affinities of Ab-14 variants for a coronavirus HR2 peptide

From the AlphaSeq antibody data of Li et al. 2023 (doi:10.1038/s41467-023-39022-2), copy in the FLAb collection.

Target peptide (SARS-CoV-2 spike, HR2 region): PDVDLGDISGINAS

Parent: Ab-14, a human scFv built as VH, a 15-residue (Gly4Ser)3 linker, VL. Only the CDRs of the heavy chain vary.
VH: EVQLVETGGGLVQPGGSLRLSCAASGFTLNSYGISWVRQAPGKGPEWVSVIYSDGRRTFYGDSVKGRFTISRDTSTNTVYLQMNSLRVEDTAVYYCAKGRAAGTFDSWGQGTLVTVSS
VL: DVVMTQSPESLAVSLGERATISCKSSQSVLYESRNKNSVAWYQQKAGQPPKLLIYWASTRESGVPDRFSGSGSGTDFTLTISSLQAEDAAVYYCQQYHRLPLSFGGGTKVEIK

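The starting antibody came from a phage panning campaign against this peptide. Designed CDR sequences, proposed from the first random library and measured here. Several design methods are mixed in this list. In AlphaSeq, yeast of one mating type display the scFv and yeast of the other type display the target. Binding brings cells together so that they mate, and sequencing counts the barcode pairs among the diploids. Each replicate has its own calibration line, from reference interactions of the BCL2 family. There are six technical replicates.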

Each variant is given by its three heavy chain CDRs, as the data file delimits them; those of the parent are GFTLNSYGIS, VIYSDGRRTFYGDSVK, GRAAGTFDS. Variants here have more than six changes. Each Kd is an estimate from the mating assay, the geometric mean of the replicates in which the pair was seen; lower is stronger. A pair that was not seen in any replicate is written "nd"; this usually means weak binding, but a binder can also be missed. Nonspecific signal, from three strains lacking the peptide, appeared in 1% of pairings of all heavy chain designs, centred on 120 nM (5% of these signals below 7.0 nM); values are not corrected for it. Values of this round are not directly comparable with the first-round values of the same sequences. Of ten entries with the parent sequence, four were seen in most replicates (averages 2.2 nM to 240 nM), three in one and three in none, so single entries are noisy. The authors' rule: three or more of the six replicates give a measured affinity, fewer mean a poor binder.

CDR-H1	CDR-H2	CDR-H3	Kd (apparent)	seen in
GFDLNEYGIS	VIYADGMRTAYTDSVK	GNTAGTFDI	310 pM	6/6
GFDLNEYGIS	VIYADGRRTFYIDSVK	GEVAGTFDL	650 pM	6/6
GFDLNEYGIS	VIYADGVRTAYADNVK	GQNAGTFDV	420 pM	6/6
GFDLDEYGIS	VIYADGVRTAYADSVK	GNTAGTFDI	270 pM	6/6
GYSLQDYGIS	VIYADGKRKSYAEDVK	GQTAGSVMD	nd	0/6
GNNLDEYGIS	VIYADGVRTAYAQRVK	GETGDNAMT	nd	0/6
GFDLNEYGIS	VIYADGQRTFYSDSVK	GQLAGTFDS	400 pM	6/6
GFSLDEYGIS	VIYADGVRTFYADSVK	GNVAGTFDV	400 pM	6/6
GFDLNEYGIS	VIYADGVRTFYIDSVK	GETAGTFDQ	830 pM	6/6
GFDIEEMGIS	VIYADGARTVYTNSVK	GSFGDQMNV	nd	0/6
GFGLMEYGIS	VIYADGMRTSYSNSFK	GALAGTFDE	110 nM	1/6
GFDLNEYGIS	VIYADGVRTAYADSVK	GSNAGTFDQ	210 pM	6/6
GFDLDEYGIS	VIYADGMRKAYADSVK	GNVAGTFDL	420 pM	6/6
GFDLNEYGIS	VIYADGRRTAYTDSVK	GHIAGTFDL	240 pM	6/6
GFDLEEYGIS	VIYADGLRQYYKDNFK	GWNSGTIAV	48 nM	1/6
GFDINEYGIS	VIYADGRRKAYADAVK	GIDVYGKTV	nd	0/6
GFDLNEYGIS	VIYADGMRTAYTDSVK	GNTAGTFDS	41 pM	6/6
GFDLEDYGIS	VIYADGVRTAYSDNSK	GENGGALYI	2.4 µM	2/6
GFDLNEYGIS	VIYADGRRTFYIDSVK	GNLAGTFDQ	540 pM	6/6
GFDLNEYGIS	VIYADGRRTAYSDSVK	GNTAGTFDI	nd	0/6
GFDLNEYGIS	VIYADGVRTAYSDSVK	GEAGGTFDV	1.7 nM	6/6
GFDLNEYGIS	VIYADGVRQAYADSVK	GNVAGTFDQ	140 pM	6/6
GFDLDEYGIS	VIYADGMRKAYADDVK	GNVAGTFDV	100 pM	6/6
GFDLDEYGIS	VIYADGRRTAYVDSVK	GEVAGTFDV	250 pM	6/6
GFDLDEYGIS	VIYADGMRTAYADSVK	GNIAGTFDS	590 pM	6/6
GADLNEYGIS	VIYADGDRIAAQNDVK	GTNAGDFDI	nd	0/6
GKDLEEYGIS	VIYADGRRTSYIENVK	DGLNDGTFV	nd	0/6
GFDLNEYGIS	VIYADGRRTAYIDSVK	GEAAGTFDK	2.8 nM	6/6
GFDLNEYGIS	VIYADGRRTFYTDSVK	GGNAGTFIL	nd	0/6
GGDIQEYGIS	VIYADGQRAYYSDAVK	GNIGAIFSD	nd	0/6
GFDLNEYGIS	VIYADGRRTAYADSVK	GNNAGTFDI	830 pM	6/6
GFDLNEYGIS	VIYADGRRTFYSDSVK	GTNGGTFDM	2.2 nM	6/6
GFQLDEYGIS	VIYADGKRTAYAQNFK	GNGLVLYEG	nd	0/6
GFDLNEYGIS	VIYADGRRTFYADSVK	GEVAGTFVE	380 pM	6/6
GFNLNEYGIS	VIYADGLRASYQDSVK	GNARIVGLD	nd	0/6
GFDLQEYGIS	VIYADGKRRAYENKVK	GGSVRSVVI	nd	0/6
GKGVDEYGIS	VIYADGMRTEYQQSVK	GHTGGIFFV	57 nM	1/6
GFNLGEYGIS	VIYADGRRTFYKDSVK	GHFIVSGVD	nd	0/6
GKKLDEYGIS	VIYADGKRNFYSNSVK	GGLATGLFV	nd	0/6
GFDVLEYGIS	VIYADGRRVAYAKDVK	GMNFDFIVV	nd	0/6
GFDLDEYGIS	VIYADGMRTAYPDKVK	GRETDTNVV	24 nM	1/6
GFDLNEYGIS	VIYADGVRTSYADDVK	GNQAGTFDV	420 pM	6/6
GFDLNEYGIS	VIYADGVRTAYSDNVK	GETAGTFDV	320 pM	6/6
GFDLDEYGIS	VIYADGVRTAYIDSVK	GNVAGTFDL	560 pM	6/6
GFDLNEYGIS	VIYADGMRTAYIDSVK	GENAGTFDL	230 pM	6/6
GFDLGEYGIS	VIYADGRRFAYSQAVK	GLNEGMLDI	3.0 µM	1/6
GFSLDEYGVS	VIYADGFRTAYTNSVK	GLMQQGRTV	nd	0/6
GFDLNEYGIS	VIYADGMRTAYIDSVK	GNNAGTFDM	630 pM	6/6
GFDLNEYGIS	VIYADGRRTFYADSVK	GNTAGTFLV	260 pM	6/6
GFDLNEYGIS	VIYADGMRTAYADKVK	GNTAGTFDV	280 pM	6/6
GFDLNEYGIS	VIYADGRQTFYTDNVK	GGNQGTAVL	nd	0/6
GFDLNEYGIS	VIYADGQRTFYADSVK	GNTAGTFLS	310 pM	6/6
GFDLNEYGIS	VIYADGMRTFYADSVK	GKTAGTFDQ	330 pM	6/6
GFQLNEYGIS	VIYADGIRREYADKVK	GGINASFGV	nd	0/6
GFDLDEYGIS	VIYADGMRTAYADNVK	GTNAGTFDV	440 pM	6/6

Repeated from above, the 7 best binders with a signal in all replicates:

CDR-H1	CDR-H2	CDR-H3	Kd (apparent)	seen in
GFDLNEYGIS	VIYADGMRTAYTDSVK	GNTAGTFDS	41 pM	6/6
GFDLDEYGIS	VIYADGMRKAYADDVK	GNVAGTFDV	100 pM	6/6
GFDLNEYGIS	VIYADGVRQAYADSVK	GNVAGTFDQ	140 pM	6/6
GFDLNEYGIS	VIYADGVRTAYADSVK	GSNAGTFDQ	210 pM	6/6
GFDLNEYGIS	VIYADGMRTAYIDSVK	GENAGTFDL	230 pM	6/6
GFDLNEYGIS	VIYADGRRTAYTDSVK	GHIAGTFDL	240 pM	6/6
GFDLDEYGIS	VIYADGRRTAYVDSVK	GEVAGTFDV	250 pM	6/6